Drawing on PubChem BioAssay AID602248 (The Scripps Research Institute Molecular Screening Center, 2012), this text covers activation for 26 compounds.

Structures are written as SMILES. The list shows a part of the results, in another mix than the full data. Some tests of the compounds listed are not included; inactive here does not mean inactive elsewhere. Active and inactive are the calls of the source. Cut-off read from the data, not from the text of the source: active = activation above about 15%; inactive = the rest.

This assay is described as follows: counter-screen for M1 agonists: effect in parental CHO-K1 cells (AID 602248).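 Note: untransfected CHO-K1 host cells lacking M1 receptor as counterscreen.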 The conditions noted are these: Fluo-8 calcium fluorescence, at 3 µM, active compounds read high, scaled to maximal ATP response, vehicle zero. Background: Counterscreens check selectivity or assay interference.
`C=CCN1CCN(CCOC(=O)C(O)(c2ccccc2)c2ccccc2)CC1`: the activation was inactive: -0.06%.

Turning to `O=C(NCC1(N2CCCCC2)CCCCC1)c1cc(F)c(F)cc1Cl`, the activation was inactive: -0.37%.

With `COc1ccc(C(=O)NCC2(N(C)C)CCCCC2)cc1`, the activation is inactive: 1.44%.

Turning to `Cc1cc(C(=O)NCC2(N3CCCCC3)CCCCC2)ccc1[N+](=O)[O-]`, the activation was inactive: 2.87%.

`CCN1CCCC(OC(=O)C2(O)c3ccccc3C=Cc3ccccc32)C1` (stereo unspecified): the activation was inactive: 0.65%.

With `O=C(NCC1(N2CCCCC2)CCCCC1)c1cccc(Br)c1`, the activation was inactive: 0.24%.

Turning to `Cc1ccccc1C(=O)NCC1(N2CCCCC2)CCCCC1`, the activation is inactive: 0.63%.

As to `CN(C)C1CCCC1OC(=O)C(O)(c1ccccc1)c1ccccc1` (stereo unspecified), the activation was inactive: 0.13%.

Consider `CN(C)c1ccc(C(=O)NCC2(N(C)C)CCCCC2)cc1`, for which the activation was inactive: -0.31%.

`CCN(CC)CC(C)C(C)OC(=O)C(O)(c1ccccc1)c1ccccc1` (stereo unspecified): the activation is inactive: 1.74%.

Regarding `COc1cc(SC)ccc1C(=O)NCC1(N(C)C)CCCCC1`, the activation was inactive: 0.46%.

With `CC(C)N1C(=O)CC2(CCN(CCOC(=O)C(O)(c3ccccc3)c3ccccc3)CC2)C1=O`, the activation is inactive: 1.76%.

Take `Cc1ccc(C(=O)NCC2(N3CCCCC3)CCCCC2)cc1`: the activation was inactive: -0.19%.

In the case of `O=C(NCC1(N2CCCCC2)CCCCC1)c1cc([N+](=O)[O-])ccc1Cl`, the activation was inactive: 0.45%.

With `CN1[C@@H]2CC[C@H]1CC(OC(=O)C(O)(c1ccccc1)c1ccccc1)C2` (stereo partly specified), the activation is inactive: 1.5%.

Regarding `C=C(C)C#CC(O)(C(=O)OC1CCN(C)CC1)c1ccccc1` (stereo unspecified), the activation was inactive: 0.01%.

With `COc1ccc(Br)c(C(=O)NCC2(N3CCCCC3)CCCCC2)c1`, the activation is inactive: 0.48%.

`CC(C)Oc1ccc(C(=O)NCC2(N(C)C)CCCCC2)cc1`: the activation was inactive: 0.5%.

Take `O=C(OCCN1CCCC1)C(O)(c1ccccc1)c1ccccc1`: the activation is inactive: 0.32%.

Take `CN(C)c1cccc(C(=O)NCC2(N(C)C)CCCCC2)c1`: the activation was inactive: -0.1%.

Take `O=C(OC1CN2CCC1CC2)C(CO)(c1ccccc1)c1ccccc1` (stereo unspecified): the activation is inactive: 0.63%.

Take `COc1cccc(C(=O)NCC2(N3CCCCC3)CCCCC2)c1`: the activation is inactive: 0.51%.

Regarding `COc1ccc(Cl)cc1C(=O)NCC1(N(C)C)CCCCC1`, the activation was inactive: 1.37%.

`O=C(NCC1(N2CCCCC2)CCCCC1)c1cccc(Cl)c1`: the activation is inactive: 0.45%.

For the compound `CN(C)C1(CNC(=O)c2ccc(Br)cc2)CCCCC1`, the activation was inactive: 0.55%.

As for `COc1cc(C(=O)NCC2(N(C)C)CCCCC2)c([N+](=O)[O-])cc1OC`, the activation is inactive: 1.3%.
